Columns and labels:
ROCK-II = ROCK-II (Homo sapiens, UniProt O75116); experiment: ROCK-II biochemical counter-screen; settings: read-out: ROCK-II IC50
Limk1 = Limk1 (Homo sapiens, UniProt P53667); settings: read-out: Limk1 IC50

Amino acid sequences for entries named in this document (tags omitted). Residues count along the entry.
UniProt O75116, whole entry: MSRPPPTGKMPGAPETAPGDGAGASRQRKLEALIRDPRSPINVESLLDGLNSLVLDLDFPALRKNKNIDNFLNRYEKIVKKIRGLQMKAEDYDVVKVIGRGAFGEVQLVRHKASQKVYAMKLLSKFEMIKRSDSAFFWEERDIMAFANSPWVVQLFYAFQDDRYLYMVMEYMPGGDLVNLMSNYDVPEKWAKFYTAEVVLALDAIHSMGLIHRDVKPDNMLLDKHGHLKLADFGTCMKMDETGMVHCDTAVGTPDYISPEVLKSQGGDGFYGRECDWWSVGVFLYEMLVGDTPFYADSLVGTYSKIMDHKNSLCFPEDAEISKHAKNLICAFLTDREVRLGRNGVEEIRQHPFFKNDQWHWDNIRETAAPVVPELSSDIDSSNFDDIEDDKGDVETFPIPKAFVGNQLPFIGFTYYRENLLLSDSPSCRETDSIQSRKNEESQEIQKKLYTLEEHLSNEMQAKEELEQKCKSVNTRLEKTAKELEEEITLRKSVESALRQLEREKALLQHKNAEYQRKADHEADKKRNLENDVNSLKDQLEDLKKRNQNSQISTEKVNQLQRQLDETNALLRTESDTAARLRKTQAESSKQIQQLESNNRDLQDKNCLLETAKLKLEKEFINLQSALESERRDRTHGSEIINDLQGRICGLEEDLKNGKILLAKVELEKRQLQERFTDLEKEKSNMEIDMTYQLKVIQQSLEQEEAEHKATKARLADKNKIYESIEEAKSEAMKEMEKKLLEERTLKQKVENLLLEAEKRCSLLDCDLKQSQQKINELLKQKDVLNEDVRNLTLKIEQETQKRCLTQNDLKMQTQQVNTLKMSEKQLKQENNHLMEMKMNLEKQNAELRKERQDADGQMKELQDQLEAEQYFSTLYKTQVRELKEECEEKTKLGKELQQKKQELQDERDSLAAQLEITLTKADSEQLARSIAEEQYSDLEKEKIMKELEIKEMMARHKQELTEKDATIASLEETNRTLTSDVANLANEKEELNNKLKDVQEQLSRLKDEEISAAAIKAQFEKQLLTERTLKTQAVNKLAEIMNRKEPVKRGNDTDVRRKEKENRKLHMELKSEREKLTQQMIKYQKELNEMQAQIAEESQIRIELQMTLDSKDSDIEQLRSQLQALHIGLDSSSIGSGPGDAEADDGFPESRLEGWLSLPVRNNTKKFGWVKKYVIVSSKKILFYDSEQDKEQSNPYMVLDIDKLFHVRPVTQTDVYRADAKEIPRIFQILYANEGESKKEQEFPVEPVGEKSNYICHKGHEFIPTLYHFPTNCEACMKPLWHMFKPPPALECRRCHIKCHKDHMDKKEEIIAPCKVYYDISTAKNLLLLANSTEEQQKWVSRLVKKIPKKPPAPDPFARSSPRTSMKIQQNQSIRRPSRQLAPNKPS
UniProt P53667, 285-638 limits assumed: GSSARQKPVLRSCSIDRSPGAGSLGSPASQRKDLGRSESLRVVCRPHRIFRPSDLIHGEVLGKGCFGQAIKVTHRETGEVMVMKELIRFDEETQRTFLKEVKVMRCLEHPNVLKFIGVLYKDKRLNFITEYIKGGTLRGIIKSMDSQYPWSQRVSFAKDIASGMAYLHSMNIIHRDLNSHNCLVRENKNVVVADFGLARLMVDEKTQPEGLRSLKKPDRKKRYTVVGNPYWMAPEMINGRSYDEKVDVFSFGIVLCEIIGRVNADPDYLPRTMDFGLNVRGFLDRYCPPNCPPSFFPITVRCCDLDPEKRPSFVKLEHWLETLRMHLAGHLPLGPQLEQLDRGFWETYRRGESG

IC50 (ROCK-II): 2 nM
IC50 (Limk1): > 10000 nM
SMILES: COc1cccc(CNC(=O)Nc2ccc(-c3cn[nH]c3)cc2)c1

Source: patent US20190292189A1, “LIM KINASE INHIBITORS” (VIRONGY, LLC, priority 2016, published 2019)
